A selection: hits, their analogues and other compounds. The true share with any hit is near 2.1%.
PGC1a acetyl inh = lowers PGC1a acetylation signal in U2OS cells. inhibition, % at 15.6 µM. AlphaScreen anti-acetyl-lysine; with virally co-expressed GCN5 acetyltransferase. 0.17% of 350,000 active;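 active = every replicate shows inhibition of at least 40%; inconclusive = mean inhibition at least 40% but some replicate below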;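 note: 0% = neutral control wells and 100% = positive control wells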
UUG fidelity = modulators of start codon recognition fidelity in yeast; AID 602363; hit rate 0.13% among 350,000; activity score, % at 18.7 µM; S. cerevisiae UUG-firefly luciferase reporter, luminescence/redox ratio;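 active = replicate mean at a twofold rise or more, about +100% in these data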;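 note: firefly luciferase made from a UUG start codon reports start codon fidelity; reporter light over untreated wells divided by growth signal over untreated wells; some hits fall short of that in this replicate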
TRPM1 prom inh = inhibitors of MITF-driven TRPM1 promoter in melanoma cells | SK-MEL-5 TRPM1 promoter luciferase, 24 h | inhibition, % at 12.5 µM | 0.83% of 330,000 active;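 active = mean inhibition across replicates of 60% or more, whatever share of single replicates reaches that level; inconclusive = some that reach 60%, reason not given; inactive = mean inhibition across replicates below 60%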
MITF act = MITF TRPM1 promoter activation in melanoma cells; AID 588334; 0.75% of 300,000 active; activation, % at 12.5 µM; SK-MEL-5 TRPM1-promoter luciferase, 24 h; % of positive control, neutral wells = 0;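 active = mean activation of at least 80% with every replicate also reaching 80%; inconclusive = mean reaches 80% but some replicate falls short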;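 note: 0% = neutral control wells and 100% = parthenolide positive control wells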
Wnt bcat act = Wnt/beta-catenin pathway activation; Wnt/beta-catenin reporter cell assay, activator, plate reader; activation, % at 9.35 µM; 1.2% of 300,000 active; AID 743398; in the data active = activation above about 30%, passing the limit was not always enough; inconclusive = no clear call, values can overlap the other calls;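 note: 0% = neutral control wells and 100% = positive control wells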
miR-122 sensor = inhibitors of miR-122 in Huh7 cells | Huh7 miR-122 Renilla luciferase sensor, 48 h; neutral wells = 0, positive control = 100 | activation (reporter increase), % at 12.5 µM | 0.3% of 340,000 active;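 active = mean replicate activation score at least 90 and every replicate individually at or above 90; inconclusive = only one of the two criteria met; inactive = neither criterion met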;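 note: higher luciferase means less miR-122 activity so hits act as miR-122 inhibitors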
Active calls of the source: *; [ ] = dose if it differs, or a comment.

For Cc1nc(C)c(C(=O)N/N=C/c2cc(Br)ccc2O)s1 the results were PGC1a acetyl inh 30.7, UUG fidelity 16.9, TRPM1 prom inh 63.1*, MITF act -61.0, Wnt bcat act 0.1 and miR-122 sensor 7.7.
`O=C(N/N=C/c1ccc(O)c2ncccc12)c1cccc(Br)c1` gave PGC1a acetyl inh inconclusive, TRPM1 prom inh 65.1*, MITF act -65.2, Wnt bcat act -5.3 and miR-122 sensor -13.7.
For O=C(N/N=C/c1cc(Br)ccc1O)c1ccncc1 the results were PGC1a acetyl inh 14.7, UUG fidelity -32.1, TRPM1 prom inh 76.4*, MITF act -75.0, Wnt bcat act -2.8 and miR-122 sensor 1.9.
`C[C@@H]1CCCCO[C@@H](CN(C)C(=O)Nc2ccc(C(F)(F)F)cc2)[C@H](C)CN([C@@H](C)CO)C(=O)c2cc(NC(=O)CCC(F)(F)F)ccc2O1` gave PGC1a acetyl inh -10.3, UUG fidelity -11.5 and miR-122 sensor -3.4[16.7 µM].
C[C@@H]1CN([C@H](C)CO)C(=O)c2cc(C#CC(C)(C)O)cnc2O[C@H]1CN(C)Cc1ccccn1 was read as PGC1a acetyl inh 5.5, UUG fidelity -19.8 and miR-122 sensor 0.4[16.7 µM].
`O=C1C=C(NCCc2cc(Br)c(O)c(Br)c2)C(=O)c2ncccc21` gave TRPM1 prom inh 109.2*, MITF act -108.9 and Wnt bcat act -6.2.
For CSCc1ccc(C(=O)NCCSc2ccc(Br)cc2)cc1 the results were UUG fidelity -14.7, TRPM1 prom inh -115.3, MITF act 108.0* and Wnt bcat act inconclusive.
For COc1ccc(CN(C)C[C@@H]2Oc3ccc(NC(=O)Nc4c(C)noc4C)cc3CC(=O)N([C@H](C)CO)C[C@@H]2C)cc1 the results were PGC1a acetyl inh -1.4.
CCCNC(=O)[C@H]1[C@H](CO)[C@H]2Cn3c(ccc(-c4ccncc4)c3=O)[C@@H]1N2CC1CC1 was read as PGC1a acetyl inh 1.9 and miR-122 sensor -1.9[16.7 µM].
COc1ccc(CNC(=O)COC(=O)c2c(NC(C)=O)sc(C)c2C)cc1 was read as UUG fidelity -4.6, TRPM1 prom inh 6.3, MITF act -1.2 and Wnt bcat act 2.6.

The last four records of the part before lead into the next:
For CSCc1ccc(C(=O)NCCSc2ccc(Br)cc2)cc1 the results were UUG fidelity -14.7, TRPM1 prom inh -115.3, MITF act 108.0* and Wnt bcat act inconclusive.
For COc1ccc(CN(C)C[C@@H]2Oc3ccc(NC(=O)Nc4c(C)noc4C)cc3CC(=O)N([C@H](C)CO)C[C@@H]2C)cc1 the results were PGC1a acetyl inh -1.4.
CCCNC(=O)[C@H]1[C@H](CO)[C@H]2Cn3c(ccc(-c4ccncc4)c3=O)[C@@H]1N2CC1CC1 was read as PGC1a acetyl inh 1.9 and miR-122 sensor -1.9[16.7 µM].
COc1ccc(CNC(=O)COC(=O)c2c(NC(C)=O)sc(C)c2C)cc1 was read as UUG fidelity -4.6, TRPM1 prom inh 6.3, MITF act -1.2 and Wnt bcat act 2.6.
Screening COc1ccc(CNC(=O)COC(=O)c2c(NC(C)=O)sc(C)c2C)cc1OC returned PGC1a acetyl inh 4.2, UUG fidelity -13.5, Wnt bcat act 46.0* and miR-122 sensor -3.0.
Cc1cc(C(=O)Nc2cccc3c2O[C@@H](CN(C)Cc2ccc(Oc4ccccc4)cc2)[C@H](C)CN([C@H](C)CO)C3=O)n(C)n1 was read as PGC1a acetyl inh 0.2, UUG fidelity -3.2 and miR-122 sensor -11.3[16.7 µM].
For CCN1C(=O)c2cccc3c(S(=O)(=O)Nc4ccccc4)ccc1c23 the results were PGC1a acetyl inh -24.0, UUG fidelity -12.4, TRPM1 prom inh 8.3 and miR-122 sensor 150.6*.
For CCN1C(=O)c2cccc3c(S(=O)(=O)Nc4ncccc4C)ccc1c23 the results were PGC1a acetyl inh -6.0, UUG fidelity -10.0, TRPM1 prom inh 10.0, MITF act -7.7, Wnt bcat act 12.0 and miR-122 sensor 95.6*.
CCN1C(=O)c2cccc3c(S(=O)(=O)Nc4ccncc4)ccc1c23 was read as PGC1a acetyl inh 10.5, UUG fidelity -16.2, TRPM1 prom inh 2.5, MITF act -1.3 and miR-122 sensor 16.6.
For O=C(Nc1ccc2c(c1)[C@@H]1C[C@@H](CC(=O)N3CCCCC3)O[C@H](CO)[C@@H]1O2)c1ccc2c(c1)OCO2 the results were PGC1a acetyl inh -21.3, UUG fidelity -7.0 and miR-122 sensor -0.7[16.7 µM].
For CC(C)NC(=O)NCC[C@H]1CC[C@@H](NC(=O)Nc2ccccc2)[C@H](CO)O1 the results were PGC1a acetyl inh -4.6, UUG fidelity 0.6 and miR-122 sensor -7.7[16.7 µM].
Screening O=C(C[C@H]1CC[C@@H]2[C@H](COC[C@H](O)CN2Cc2cocn2)O1)NCc1cccc(F)c1 returned PGC1a acetyl inh -5.4, UUG fidelity -2.1 and miR-122 sensor 3.3[16.7 µM].
Screening CCOC(=O)c1ccc(-c2nnc(-c3ccc(Cl)cc3Cl)o2)cc1 returned UUG fidelity -5.0, TRPM1 prom inh -84.4, MITF act 87.4* and miR-122 sensor -5.0.
Screening O=C(NCc1cccs1)c1cc(-c2ccc(O)cc2)on1 returned PGC1a acetyl inh -2.3, TRPM1 prom inh -54.3, MITF act 57.7, Wnt bcat act 36.9* and miR-122 sensor -3.6.
Screening CCCc1cc(C(=O)NC2CCCCC2)no1 returned PGC1a acetyl inh 0.9, UUG fidelity -13.1, TRPM1 prom inh -62.9, MITF act 65.8, Wnt bcat act 33.2* and miR-122 sensor -3.5.
Screening Cc1ccc(-c2cc(C(=O)NCc3cccs3)no2)cc1 returned PGC1a acetyl inh 15.6, UUG fidelity -17.1, TRPM1 prom inh -67.8, MITF act 75.5 and miR-122 sensor -1.4.
Screening O=C(NC1CCCCC1)c1cc(-c2ccccc2O)on1 returned PGC1a acetyl inh 10.6, UUG fidelity -1.9, TRPM1 prom inh -111.2, MITF act 123.6*, Wnt bcat act 22.0 and miR-122 sensor -7.8.
For CN(C(=O)c1cc(-c2ccccc2)on1)C1CCCCC1 the results were PGC1a acetyl inh -0.3, UUG fidelity -5.6, TRPM1 prom inh -178.5, MITF act 174.2*, Wnt bcat act 33.8* and miR-122 sensor 6.9.
C[C@@H]1CN([C@H](C)CO)C(=O)c2cc(NC(=O)NC3CCCCC3)ccc2O[C@@H](C)CCCCO[C@@H]1CN(C)Cc1ccc(C(=O)O)cc1 was read as PGC1a acetyl inh 11.5, UUG fidelity 5.0 and miR-122 sensor 3.8[16.7 µM].
O=C(NC1CCCCC1)c1cc(-c2ccc(O)cc2)on1 was read as PGC1a acetyl inh 4.0, UUG fidelity -15.7, TRPM1 prom inh -84.6, MITF act 93.2*, Wnt bcat act -3.5 and miR-122 sensor -2.5.
Screening COc1ccc(-c2cc(C(=O)NC3CCCCC3)no2)cc1OC returned UUG fidelity -5.5, TRPM1 prom inh -7.4, MITF act 7.5 and Wnt bcat act -3.8.
`Cc1ccc(-c2cc(C(=O)NC3CCCCC3)no2)cc1` gave UUG fidelity -27.0, TRPM1 prom inh -115.5, MITF act 114.2* and Wnt bcat act 8.9.
For COc1ccc(NC(=O)Nc2ccc3c(c2)C(=O)N(C)C[C@H](OC)[C@@H](C)CN[C@H](C)CO3)cc1 the results were PGC1a acetyl inh -1.2 and miR-122 sensor 7.3[16.7 µM].
Screening c1ccc(CSc2ncnc3c2ncn3C2CCCCO2)cc1 (stereo not given) returned PGC1a acetyl inh -0.9, UUG fidelity -18.8, TRPM1 prom inh -106.8, MITF act 100.4*, Wnt bcat act -4.2 and miR-122 sensor 1.3.
For Fc1cccc(CSc2ncnc3c2ncn3C2CCCCO2)c1 (stereo not given) the results were PGC1a acetyl inh -0.2, UUG fidelity -2.1, TRPM1 prom inh -95.3, MITF act 97.6*, Wnt bcat act -0.7 and miR-122 sensor -5.7.

Source: PubChem (Broad Institute)
